## Measured affinities in a library of Ab-14 light chain variants

Antigen: PDVDLGDISGINAS, a 14-residue peptide of the SARS-CoV-2 spike HR2 region.

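Phage display of a naive human antibody library on the peptide gave the parent. The library (AAYL50) carries one to three amino acid substitutions per variant, with no insertions or deletions. In AlphaSeq, yeast of one mating type display the scFv and yeast of the other type display the target. Mating (16 h, 30 °C) was followed by selection of diploids and sequencing of their barcodes. Scores were corrected for input abundance and mapped to Kd with protein pairs of known affinity run in the same pool. The assay was run in three technical replicates.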

Parent scFv Ab-14: VH joined to VL by the linker GGGGSGGGGSGGGGS. Changes lie in the light chain CDRs alone.
VH: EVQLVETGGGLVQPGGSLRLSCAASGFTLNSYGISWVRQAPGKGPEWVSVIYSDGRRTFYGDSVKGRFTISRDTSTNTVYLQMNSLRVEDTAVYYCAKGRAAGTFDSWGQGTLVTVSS
VL: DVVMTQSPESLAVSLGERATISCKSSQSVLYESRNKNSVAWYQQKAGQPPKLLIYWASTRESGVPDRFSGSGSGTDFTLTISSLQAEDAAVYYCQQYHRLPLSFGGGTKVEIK

The parent's light chain CDRs are KSSQSVLYESRNKNSVA, WASTRES, QQYHRLPLS; each variant's own CDRs replace them letter for letter.
The read-out is the apparent dissociation constant on a log10 scale (nM): the lower, the stronger.
A mean of the replicates is given; it leaves out those without a signal.
"nd" marks a missing value. The strain was present, yet no cells mated with the target were sequenced in that replicate, which points to weak or no binding.
Parent in this assay: reference entry 0.65, copy in this library 1.68.
Nonspecific signal, from three strains lacking the peptide, appeared in 18% of pairings of library AAYL50, centred on 4.19 (5% of these signals below 2.99); values are not corrected for it. For each scFv, signals with the empty controls are counted beside the result.

ASSQSSLYESRNANSVA / WASTRES / QQYHRLPLS: 1.78, 1.64, 1.86 (mean 1.76; controls 4 of 9).
KSTQSVLYESRNKVSVA / WASTREG / QQYHRLPLS: nd, nd, nd (controls 1 of 9).
KSSQSVLYESRNKNSVA / WASTGEY / QLYHRLPLS: nd, nd, nd (controls 0 of 9).
KSSQSVLYESRNKNSVA / WYSTREQ / QIYHRLPLS: 3.32, nd, nd (controls 2 of 9).
KSSQSVLYESNNKNSVA / AADTRES / QQYHRLPLS: -0.09, 0.18, -0.04 (mean 0.02; controls 2 of 9).
KSSQSVLYESRNKNSVA / WASHRES / QQVYRLPLS: 1.64, 1.69, 1.76 (mean 1.70; controls 3 of 9).
KSSQHVLYESRNKNSYA / WASTRES / QQYHRLCLS: nd, nd, 3.83 (controls 0 of 9).
KSSHIVLYESRNKNSVC / WASTRES / QQYHRLPLS: 3.65, 3.86, 5.87 (mean 4.46; controls 1 of 9).
KSSQSAMYESRNKNSVA / WASTRES / QQYHQLPLS: nd, nd, nd (controls 0 of 9).
KSSQSVLYESRNKNSVA / DASTRES / QQYHRLELY: nd, nd, nd (controls 0 of 9).
KSSQSVYSESRNKNSVA / WASTRES / QQYHRLPLS: 0.39, 0.66, 0.54 (mean 0.53; controls 4 of 9).
KSSQSVLYESHNKNSVA / WASTREQ / QLYHRLPLS: 1.36, 2.12, nd (mean 1.74; controls 0 of 9).
KSSQSVLYESRNKNSDA / WASTRES / QQYHSLPLS: 4.62, 4.17, 4.04 (mean 4.28; controls 5 of 9).
KSSQSVLYERRNKNSVA / WASTRES / QQMHRLPAS: 3.05, 2.47, 2.88 (mean 2.80; controls 0 of 9).
KSSQSVPYQDRNKNSVA / WASTRES / QQYHRLPLS: 0.31, 0.52, 0.62 (mean 0.49; controls 0 of 9).
KSSQSVLYESRNKNSVA / WASSRES / LWYHRLPLS: 4.64, 3.83, 4.94 (mean 4.47; controls 5 of 9).
VSQQSVLYESRNKNSVA / WASTRES / QQYHRLPLA: 0.98, 1.39, 1.19 (mean 1.19; controls 0 of 9).
KSSQSVLYESRNKTSVA / WASTRGS / QQEHRLPLS: 3.56, 4.88, nd (mean 4.22; controls 2 of 9).
KSSQSYLYESRNKNSVI / KASTRES / QQYHRLPLS: nd, nd, nd (controls 1 of 9).
KSSQSVLYESRNKNSVA / WMSTRIS / QQYHNLPLS: 3.32, nd, nd (controls 4 of 9).
KSSGSVLYESREKNSVA / WASTRES / EQYHRLPLS: 2.17, 1.68, 1.53 (mean 1.79; controls 0 of 9).
KSSQSVLYEYRNKNSVA / WASTRES / QQYHRLHLS: nd, nd, nd (controls 1 of 9).
KSSQSVLYFSRNKNSVA / WQSTRES / QAYHRLPLS: nd, nd, nd (controls 1 of 9).
KSSQSVLYEYRNKNSVA / WASTRES / QQHHRLPPS: 4.88, nd, nd (controls 1 of 9).
KSSQSLLYESRNKNSVA / WASWRES / QQYHRKPLS: 1.11, 0.80, 1.07 (mean 0.99; controls 0 of 9).
KSSQNVLYESRNKNSHA / WASTRES / QVYHRLPLS: nd, nd, nd (controls 3 of 9).
KSSQSVLYESRNKNSVA / WASTRTS / QQYHRLPLS: 1.06, 1.15, 1.06 (mean 1.09; controls 7 of 9).
KNSQSVLYESRNKLSVA / WASTRES / QQAHRLPLS: nd, nd, 3.97 (controls 1 of 9).
KHSQSVLYESRNKNSVA / WASTRES / QQYHRLPVS: 0.48, 1.14, 0.82 (mean 0.82; controls 2 of 9).
KSSQSVLYESRNKNSVA / WWSTRES / QQPWRLPLS: nd, nd, nd (controls 1 of 9).
KSSQRVLYESRNKNSVA / WASTHES / QQYHRLPLH: nd, nd, nd (controls 1 of 9).
KSSQSVLYESRNKNSVA / WASTRES / QQYHRVPLS: 1.01, 1.06, 1.12 (mean 1.06; controls 1 of 9).
KSSQSVLYESRNKNSVA / WASTRWS / QQYHRLPLS: nd, nd, nd (controls 0 of 9).

Top 2 of the variants detected in all replicates, tightest first:

| CDR-L1 | CDR-L2 | CDR-L3 | log10 Kd (nM) by replicate | log10 Kd (nM), mean | control signals |
|---|---|---|---|---|---|
| KSSQSVLYESNNKNSVA | AADTRES | QQYHRLPLS | -0.09, 0.18, -0.04 | 0.02 | 2/9 |
| KSSQSVPYQDRNKNSVA | WASTRES | QQYHRLPLS | 0.31, 0.52, 0.62 | 0.49 | 0/9 |

Data: MIT Lincoln Laboratory AlphaSeq set, Engelhart et al. 2022, doi:10.1038/s41597-022-01779-4, as distributed in FLAb.